{"sequences": {"note": "The chains behind the UniProt entries cited, without tags or fusion partners. Where a name states a change or a piece, a line headed by the entry shows the natural chain unless it says otherwise.", "UniProt O42275": "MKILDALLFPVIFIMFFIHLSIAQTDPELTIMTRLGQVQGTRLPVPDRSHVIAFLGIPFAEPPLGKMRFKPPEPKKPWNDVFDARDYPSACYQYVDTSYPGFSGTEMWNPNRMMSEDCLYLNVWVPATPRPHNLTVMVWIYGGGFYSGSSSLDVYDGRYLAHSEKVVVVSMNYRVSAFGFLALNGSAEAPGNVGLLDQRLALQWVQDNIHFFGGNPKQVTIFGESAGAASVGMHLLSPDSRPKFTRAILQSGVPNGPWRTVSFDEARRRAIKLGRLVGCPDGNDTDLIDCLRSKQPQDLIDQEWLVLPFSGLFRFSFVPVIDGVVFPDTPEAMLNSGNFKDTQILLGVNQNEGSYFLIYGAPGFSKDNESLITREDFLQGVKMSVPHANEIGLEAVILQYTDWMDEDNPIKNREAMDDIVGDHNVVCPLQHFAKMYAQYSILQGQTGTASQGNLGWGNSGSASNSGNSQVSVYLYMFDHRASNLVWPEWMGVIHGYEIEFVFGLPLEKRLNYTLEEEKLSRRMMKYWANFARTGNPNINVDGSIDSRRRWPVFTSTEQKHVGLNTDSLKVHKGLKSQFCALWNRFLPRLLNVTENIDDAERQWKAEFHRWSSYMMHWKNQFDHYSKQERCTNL"}, "source": "ChEMBL document CHEMBL1821552", "about": "“Synthesis and in vitro evaluation of xylene linked carbamoyl bis-pyridinium monooximes as reactivators of organophosphorus (OP) inhibited electric eel acetylcholinesterase (AChE)” (2011)", "key": {"[1]": {"molecular_target": "Acetylcholinesterase (Electrophorus electricus) (UniProt O42275)", "assay": "Reactivation of diisopropyl phosphorofluoridate-inhibited electric eel AChE activity at 0.0001 M and pH 8 after 10 mins by Ellman's method relative to control"}, "[2]": {"molecular_target": "Acetylcholinesterase (Electrophorus electricus) (UniProt O42275)", "assay": "Reactivation of VX-inhibited electric eel AChE activity at 0.001 M and pH 8 after 10 mins by Ellman's method relative to control", "design": "scale not given: the % may be the effect or the level left"}, "[3]": {"molecular_target": "Acetylcholinesterase (Electrophorus electricus) (UniProt O42275)", "assay": "Reactivation of sarin-inhibited electric eel AChE activity after 40 mins by Ellman's method relative to control", "design": "scale not given: the % may be the effect or the level left"}, "[4]": {"molecular_target": "Acetylcholinesterase (Electrophorus electricus) (UniProt O42275)", "assay": "Reactivation of sarin-inhibited electric eel AChE activity at 0.001 M and pH 8 after 10 mins by Ellman's method relative to control", "design": "scale not given: the % may be the effect or the level left"}, "[5]": {"molecular_target": "Acetylcholinesterase (Electrophorus electricus) (UniProt O42275)", "assay": "Reactivation of diisopropyl phosphorofluoridate-inhibited electric eel AChE activity at 0.001 M and pH 8 after 10 mins by Ellman's method relative to control", "design": "scale not given: the % may be the effect or the level left"}, "[6]": {"molecular_target": "Acetylcholinesterase (Electrophorus electricus) (UniProt O42275)", "assay": "Reactivation of diisopropyl phosphorofluoridate-inhibited electric eel AChE activity after 40 mins by Ellman's method relative to control", "design": "scale not given: the % may be the effect or the level left"}, "[7]": {"molecular_target": "Acetylcholinesterase (Electrophorus electricus) (UniProt O42275)", "assay": "Reactivation of VX-inhibited electric eel AChE activity at 0.0001 M and pH 8 after 10 mins by Ellman's method relative to control"}, "[8]": {"molecular_target": "Acetylcholinesterase (Electrophorus electricus) (UniProt O42275)", "assay": "Reactivation of VX-inhibited electric eel AChE activity after 30 mins by Ellman's method relative to control", "design": "scale not given: the % may be the effect or the level left"}, "[9]": {"molecular_target": "Acetylcholinesterase (Electrophorus electricus) (UniProt O42275)", "assay": "Reactivation of sarin-inhibited electric eel AChE activity at 0.0001 M and pH 8 after 10 mins by Ellman's method relative to control"}}, "note": "Active and inactive are the calls of the source. The calls are words filed in the database; no cut-off is given here.", "data": [{"smiles": "NC(=O)c1ccc[n+](Cc2cccc(C[n+]3ccccc3/C=N/O)c2)c1", "values": [{"measurement": "Activity", "setting": "[1]", "value": "Active"}, {"measurement": "Activity", "setting": "[2]", "value": "Active"}, {"measurement": "Activity", "setting": "[3]", "value": 83, "unit": "%"}, {"measurement": "Activity", "setting": "[4]", "value": 48, "unit": "%"}, {"measurement": "Activity", "setting": "[5]", "value": 54, "unit": "%"}, {"measurement": "Activity", "setting": "[6]", "value": 81, "unit": "%"}]}, {"smiles": "NC(=O)c1ccc[n+](Cc2ccc(C[n+]3cccc(/C=N/O)c3)cc2)c1", "values": [{"measurement": "Activity", "setting": "[2]", "value": "Active"}]}, {"smiles": "NC(=O)c1cc[n+](Cc2ccc(C[n+]3cccc(/C=N/O)c3)cc2)cc1", "values": [{"measurement": "Activity", "setting": "[2]", "value": 40, "unit": "%"}, {"measurement": "Activity", "setting": "[7]", "value": "Active"}]}, {"smiles": "NC(=O)c1ccc[n+](Cc2cccc(C[n+]3cccc(/C=N/O)c3)c2)c1", "values": [{"measurement": "Activity", "setting": "[7]", "value": "Active"}]}, {"smiles": "NC(=O)c1cc[n+](Cc2cccc(C[n+]3cccc(/C=N/O)c3)c2)cc1", "values": [{"measurement": "Activity", "setting": "[2]", "value": 40, "unit": "%"}, {"measurement": "Activity", "setting": "[8]", "value": 45, "unit": "%"}]}, {"smiles": "NC(=O)c1cc[n+](Cc2cccc(C[n+]3ccccc3/C=N/O)c2)cc1", "values": [{"measurement": "Activity", "setting": "[9]", "value": "Active"}, {"measurement": "Activity", "setting": "[2]", "value": "Active"}, {"measurement": "Activity", "setting": "[3]", "value": 73, "unit": "%"}, {"measurement": "Activity", "setting": "[4]", "value": 45, "unit": "%"}, {"measurement": "Activity", "setting": "[5]", "value": 48, "unit": "%"}, {"measurement": "Activity", "setting": "[6]", "value": 41, "unit": "%"}]}, {"smiles": "NC(=O)c1ccc[n+](Cc2ccc(C[n+]3ccccc3/C=N/O)cc2)c1", "values": [{"measurement": "Activity", "setting": "[3]", "value": 75, "unit": "%"}, {"measurement": "Activity", "setting": "[4]", "value": 47, "unit": "%"}, {"measurement": "Activity", "setting": "[5]", "value": 54, "unit": "%"}, {"measurement": "Activity", "setting": "[6]", "value": 56, "unit": "%"}]}]}
